For the assay, the target named is human plasma kallikrein (activated with factor XIIa) (human) (UniProt P03952). Kind of assay: cell-based or functional assay.

aprotinin (from UniProt P00974 36-93) registered a concentration needed for the same suppression of factor XIIa and plasma kallikrein activation, against PK15 of 30 fold; a factor XIIa activity in kaolin-triggered human plasma (concentration that halves it) of 5 µM; a prolongation of the thrombin activation time in human plasma of 50 nM.

These data come from patent publication US20150166988A1.
